Where “and” joins values, the source holds several entries; their conditions need not be identical. Identical values can stand only once.
Columns and labels:
[1] = Plasma protein binding, mouse; conditions: for PPB mouse, single replicate: maus, raw data of Table 3; for PPB mouse (%): mean
[2] = Plasma protein binding, human; conditions: for PPB human (%): mean; for PPB human, single replicate: raw data of Table 3
[3] = Metabolic stability assay, human microsomes
[4] = molecular target: Erk2 (Homo sapiens, UniProt P28482); experiment: DSF kinase panel; conditions: 10 μM
[5] = molecular target: PIM1 (Homo sapiens, UniProt P11309); experiment: DSF kinase panel; conditions: 10 μM
[6] = molecular target: MST2 (Homo sapiens, UniProt Q13188); experiment: DSF kinase panel; conditions: 10 μM
[7] = molecular target: AAK1 (Homo sapiens, UniProt Q2M2I8); experiment: DSF kinase panel; conditions: 10 μM
[8] = molecular target: Haspin (Homo sapiens, UniProt Q8TF76); experiment: DSF kinase panel; conditions: 10 μM
[9] = molecular target: TLK1 (Homo sapiens, UniProt Q9UKI8); experiment: DSF kinase panel; conditions: 10 μM
[10] = molecular target: MST3 (Homo sapiens, UniProt Q9Y6E0); experiment: DSF kinase panel; conditions: 10 μM
[11] = molecular target: BMX (Homo sapiens, UniProt P51813); experiment: DSF kinase panel; conditions: 10 μM
[12] = molecular target: BRD4 (Homo sapiens, UniProt O60885); experiment: DSF kinase panel; conditions: 10 μM
[13] = molecular target: CK2a2 (Homo sapiens, UniProt P19784); experiment: DSF kinase panel; conditions: 10 μM
[14] = molecular target: MAP2K7 (Homo sapiens, UniProt O14733); experiment: DSF kinase panel; conditions: 10 μM
[15] = molecular target: MAP2K6 (Homo sapiens, UniProt P52564); experiment: DSF kinase panel; conditions: 10 μM
[16] = molecular target: FGFR2 (Homo sapiens, UniProt P21802); experiment: DSF kinase panel; conditions: 10 μM
[17] = molecular target: JNK3 (Homo sapiens, UniProt P53779); experiment: DSF kinase panel; conditions: 10 μM
[18] = molecular target: MEK4 (Homo sapiens, UniProt P45985); experiment: DSF kinase panel; conditions: 10 μM
[19] = molecular target: TAF1 (Homo sapiens, UniProt P21675); experiment: DSF kinase panel; conditions: 10 μM
[20] = molecular target: NEK7 (Homo sapiens, UniProt Q8TDX7); experiment: DSF kinase panel; conditions: 10 μM
[21] = molecular target: GAK (Homo sapiens, UniProt O14976); experiment: DSF kinase panel; conditions: 10 μM
[22] = Plasma stability assay, human; conditions: 1 μg∙mL-1
[23] = Metabolic stability assay, mouse microsomes

The chains behind the UniProt entries cited, without tags or fusion partners. Where a name states a change or a piece, a line headed by the entry shows the natural chain unless it says otherwise. Residues count along the entry.
UniProt P28482, 25-313 limits assumed: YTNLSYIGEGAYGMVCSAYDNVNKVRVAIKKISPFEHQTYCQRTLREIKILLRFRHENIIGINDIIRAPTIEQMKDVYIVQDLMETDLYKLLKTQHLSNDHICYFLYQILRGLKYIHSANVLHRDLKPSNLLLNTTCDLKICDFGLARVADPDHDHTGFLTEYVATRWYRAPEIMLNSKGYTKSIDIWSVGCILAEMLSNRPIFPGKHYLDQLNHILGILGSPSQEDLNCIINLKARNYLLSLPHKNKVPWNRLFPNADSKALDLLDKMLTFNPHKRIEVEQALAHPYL
UniProt P11309, whole entry, looked up: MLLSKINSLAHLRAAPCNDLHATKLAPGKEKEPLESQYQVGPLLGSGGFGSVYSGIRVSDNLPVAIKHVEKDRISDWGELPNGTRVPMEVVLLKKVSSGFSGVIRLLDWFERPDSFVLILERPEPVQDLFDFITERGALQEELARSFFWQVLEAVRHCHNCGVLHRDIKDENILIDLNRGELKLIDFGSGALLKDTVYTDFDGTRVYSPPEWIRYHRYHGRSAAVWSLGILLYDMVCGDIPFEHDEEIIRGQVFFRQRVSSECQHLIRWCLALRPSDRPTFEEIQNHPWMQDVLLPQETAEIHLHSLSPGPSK
UniProt Q13188, 16-313 limits assumed: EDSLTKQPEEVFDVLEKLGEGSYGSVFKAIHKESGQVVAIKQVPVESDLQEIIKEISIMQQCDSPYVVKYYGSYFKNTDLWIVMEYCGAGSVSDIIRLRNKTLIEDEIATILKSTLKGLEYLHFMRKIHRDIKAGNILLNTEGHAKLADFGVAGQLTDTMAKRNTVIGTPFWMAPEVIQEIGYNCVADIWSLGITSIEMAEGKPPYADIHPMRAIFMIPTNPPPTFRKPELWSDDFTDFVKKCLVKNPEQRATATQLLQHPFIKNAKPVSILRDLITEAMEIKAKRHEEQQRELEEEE
UniProt Q2M2I8, 46-315 limits assumed: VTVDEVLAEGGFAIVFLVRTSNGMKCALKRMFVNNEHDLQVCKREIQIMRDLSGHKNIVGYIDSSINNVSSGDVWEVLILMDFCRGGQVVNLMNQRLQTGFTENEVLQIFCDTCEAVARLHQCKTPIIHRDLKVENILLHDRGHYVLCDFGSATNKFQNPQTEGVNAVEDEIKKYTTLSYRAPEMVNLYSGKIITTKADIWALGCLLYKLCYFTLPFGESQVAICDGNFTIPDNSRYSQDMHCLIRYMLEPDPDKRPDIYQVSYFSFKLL
UniProt Q8TF76, 484-798 limits assumed: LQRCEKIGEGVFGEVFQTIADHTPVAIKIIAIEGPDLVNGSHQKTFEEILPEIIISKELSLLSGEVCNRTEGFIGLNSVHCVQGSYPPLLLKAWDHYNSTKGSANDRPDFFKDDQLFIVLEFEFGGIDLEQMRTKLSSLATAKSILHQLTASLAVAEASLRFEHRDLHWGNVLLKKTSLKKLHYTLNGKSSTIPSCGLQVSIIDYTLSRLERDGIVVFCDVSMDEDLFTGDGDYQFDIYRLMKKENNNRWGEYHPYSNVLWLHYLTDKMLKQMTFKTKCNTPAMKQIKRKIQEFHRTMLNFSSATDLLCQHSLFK
UniProt Q9UKI8, 456-734 limits assumed: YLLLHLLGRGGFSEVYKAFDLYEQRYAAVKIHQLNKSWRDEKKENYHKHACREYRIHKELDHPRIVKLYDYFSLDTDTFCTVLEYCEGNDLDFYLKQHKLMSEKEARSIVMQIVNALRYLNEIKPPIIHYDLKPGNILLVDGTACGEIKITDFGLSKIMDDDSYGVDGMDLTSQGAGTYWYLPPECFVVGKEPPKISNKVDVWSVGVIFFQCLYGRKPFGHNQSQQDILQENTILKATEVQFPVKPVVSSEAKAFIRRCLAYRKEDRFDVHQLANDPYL
UniProt Q9Y6E0, 36-286 limits assumed: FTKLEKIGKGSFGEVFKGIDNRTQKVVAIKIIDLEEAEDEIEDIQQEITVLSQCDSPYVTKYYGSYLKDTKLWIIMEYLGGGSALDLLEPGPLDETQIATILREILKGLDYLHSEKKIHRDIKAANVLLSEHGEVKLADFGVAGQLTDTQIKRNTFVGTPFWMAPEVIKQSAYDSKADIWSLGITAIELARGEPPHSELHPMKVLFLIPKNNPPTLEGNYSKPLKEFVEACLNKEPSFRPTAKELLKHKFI
UniProt P51813, 417-675 limits assumed: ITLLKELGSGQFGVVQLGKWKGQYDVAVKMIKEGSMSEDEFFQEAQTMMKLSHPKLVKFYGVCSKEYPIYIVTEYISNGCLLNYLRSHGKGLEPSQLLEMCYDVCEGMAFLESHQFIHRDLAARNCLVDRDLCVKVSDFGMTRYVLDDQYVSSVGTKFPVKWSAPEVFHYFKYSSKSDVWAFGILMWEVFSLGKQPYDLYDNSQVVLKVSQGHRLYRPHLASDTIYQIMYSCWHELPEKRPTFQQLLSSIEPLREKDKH
UniProt P19784: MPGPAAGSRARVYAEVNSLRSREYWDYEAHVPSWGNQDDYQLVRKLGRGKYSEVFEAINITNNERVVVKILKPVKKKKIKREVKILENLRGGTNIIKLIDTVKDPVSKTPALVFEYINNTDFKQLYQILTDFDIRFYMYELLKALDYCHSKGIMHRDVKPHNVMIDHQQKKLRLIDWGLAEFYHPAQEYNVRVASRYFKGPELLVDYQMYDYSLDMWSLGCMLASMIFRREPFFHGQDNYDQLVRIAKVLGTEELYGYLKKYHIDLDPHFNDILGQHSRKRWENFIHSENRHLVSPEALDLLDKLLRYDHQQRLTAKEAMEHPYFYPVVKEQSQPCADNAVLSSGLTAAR
UniProt O14733, 120-380 limits assumed: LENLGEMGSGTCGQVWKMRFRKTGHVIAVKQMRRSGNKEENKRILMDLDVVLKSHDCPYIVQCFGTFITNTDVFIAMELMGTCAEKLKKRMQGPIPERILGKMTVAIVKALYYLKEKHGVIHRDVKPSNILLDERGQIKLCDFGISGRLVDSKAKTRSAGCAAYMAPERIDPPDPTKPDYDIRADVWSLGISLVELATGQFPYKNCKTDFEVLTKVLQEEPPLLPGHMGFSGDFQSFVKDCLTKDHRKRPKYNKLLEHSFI
UniProt P52564, 53-314 limits assumed: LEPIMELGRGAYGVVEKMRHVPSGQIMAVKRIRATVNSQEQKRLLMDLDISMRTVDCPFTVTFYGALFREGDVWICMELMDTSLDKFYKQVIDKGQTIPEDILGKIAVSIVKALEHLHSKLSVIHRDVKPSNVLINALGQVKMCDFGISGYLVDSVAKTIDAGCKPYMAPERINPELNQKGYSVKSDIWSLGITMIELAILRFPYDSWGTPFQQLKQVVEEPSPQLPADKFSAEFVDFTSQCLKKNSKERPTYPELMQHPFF
UniProt P21802, 458-768 limits assumed: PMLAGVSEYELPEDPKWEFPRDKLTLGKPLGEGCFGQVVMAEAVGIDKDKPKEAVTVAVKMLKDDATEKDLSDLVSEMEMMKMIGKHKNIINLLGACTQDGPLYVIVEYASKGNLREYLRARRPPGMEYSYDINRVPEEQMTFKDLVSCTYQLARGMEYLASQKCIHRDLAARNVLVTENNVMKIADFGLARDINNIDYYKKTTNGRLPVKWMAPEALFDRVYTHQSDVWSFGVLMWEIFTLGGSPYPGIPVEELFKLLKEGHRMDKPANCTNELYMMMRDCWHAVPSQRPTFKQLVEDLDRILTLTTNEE
UniProt P53779, 39-402 limits assumed: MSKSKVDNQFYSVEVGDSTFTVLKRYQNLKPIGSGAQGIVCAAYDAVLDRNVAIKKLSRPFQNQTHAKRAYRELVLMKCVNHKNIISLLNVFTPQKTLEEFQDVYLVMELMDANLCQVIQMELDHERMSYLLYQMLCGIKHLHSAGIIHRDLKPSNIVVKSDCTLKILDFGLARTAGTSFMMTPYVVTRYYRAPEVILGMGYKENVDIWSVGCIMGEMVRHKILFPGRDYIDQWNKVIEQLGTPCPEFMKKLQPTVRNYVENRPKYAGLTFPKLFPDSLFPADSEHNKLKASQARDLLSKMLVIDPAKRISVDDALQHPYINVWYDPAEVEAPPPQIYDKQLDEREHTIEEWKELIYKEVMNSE
UniProt P45985, 102-367 limits assumed: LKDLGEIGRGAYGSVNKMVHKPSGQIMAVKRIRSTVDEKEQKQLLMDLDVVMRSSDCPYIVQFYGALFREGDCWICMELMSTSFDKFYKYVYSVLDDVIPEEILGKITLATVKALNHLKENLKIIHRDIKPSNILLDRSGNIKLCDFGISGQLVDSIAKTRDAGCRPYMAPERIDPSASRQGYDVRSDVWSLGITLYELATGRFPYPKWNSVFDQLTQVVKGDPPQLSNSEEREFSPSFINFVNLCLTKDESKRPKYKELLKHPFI
UniProt P21675, whole entry, looked up: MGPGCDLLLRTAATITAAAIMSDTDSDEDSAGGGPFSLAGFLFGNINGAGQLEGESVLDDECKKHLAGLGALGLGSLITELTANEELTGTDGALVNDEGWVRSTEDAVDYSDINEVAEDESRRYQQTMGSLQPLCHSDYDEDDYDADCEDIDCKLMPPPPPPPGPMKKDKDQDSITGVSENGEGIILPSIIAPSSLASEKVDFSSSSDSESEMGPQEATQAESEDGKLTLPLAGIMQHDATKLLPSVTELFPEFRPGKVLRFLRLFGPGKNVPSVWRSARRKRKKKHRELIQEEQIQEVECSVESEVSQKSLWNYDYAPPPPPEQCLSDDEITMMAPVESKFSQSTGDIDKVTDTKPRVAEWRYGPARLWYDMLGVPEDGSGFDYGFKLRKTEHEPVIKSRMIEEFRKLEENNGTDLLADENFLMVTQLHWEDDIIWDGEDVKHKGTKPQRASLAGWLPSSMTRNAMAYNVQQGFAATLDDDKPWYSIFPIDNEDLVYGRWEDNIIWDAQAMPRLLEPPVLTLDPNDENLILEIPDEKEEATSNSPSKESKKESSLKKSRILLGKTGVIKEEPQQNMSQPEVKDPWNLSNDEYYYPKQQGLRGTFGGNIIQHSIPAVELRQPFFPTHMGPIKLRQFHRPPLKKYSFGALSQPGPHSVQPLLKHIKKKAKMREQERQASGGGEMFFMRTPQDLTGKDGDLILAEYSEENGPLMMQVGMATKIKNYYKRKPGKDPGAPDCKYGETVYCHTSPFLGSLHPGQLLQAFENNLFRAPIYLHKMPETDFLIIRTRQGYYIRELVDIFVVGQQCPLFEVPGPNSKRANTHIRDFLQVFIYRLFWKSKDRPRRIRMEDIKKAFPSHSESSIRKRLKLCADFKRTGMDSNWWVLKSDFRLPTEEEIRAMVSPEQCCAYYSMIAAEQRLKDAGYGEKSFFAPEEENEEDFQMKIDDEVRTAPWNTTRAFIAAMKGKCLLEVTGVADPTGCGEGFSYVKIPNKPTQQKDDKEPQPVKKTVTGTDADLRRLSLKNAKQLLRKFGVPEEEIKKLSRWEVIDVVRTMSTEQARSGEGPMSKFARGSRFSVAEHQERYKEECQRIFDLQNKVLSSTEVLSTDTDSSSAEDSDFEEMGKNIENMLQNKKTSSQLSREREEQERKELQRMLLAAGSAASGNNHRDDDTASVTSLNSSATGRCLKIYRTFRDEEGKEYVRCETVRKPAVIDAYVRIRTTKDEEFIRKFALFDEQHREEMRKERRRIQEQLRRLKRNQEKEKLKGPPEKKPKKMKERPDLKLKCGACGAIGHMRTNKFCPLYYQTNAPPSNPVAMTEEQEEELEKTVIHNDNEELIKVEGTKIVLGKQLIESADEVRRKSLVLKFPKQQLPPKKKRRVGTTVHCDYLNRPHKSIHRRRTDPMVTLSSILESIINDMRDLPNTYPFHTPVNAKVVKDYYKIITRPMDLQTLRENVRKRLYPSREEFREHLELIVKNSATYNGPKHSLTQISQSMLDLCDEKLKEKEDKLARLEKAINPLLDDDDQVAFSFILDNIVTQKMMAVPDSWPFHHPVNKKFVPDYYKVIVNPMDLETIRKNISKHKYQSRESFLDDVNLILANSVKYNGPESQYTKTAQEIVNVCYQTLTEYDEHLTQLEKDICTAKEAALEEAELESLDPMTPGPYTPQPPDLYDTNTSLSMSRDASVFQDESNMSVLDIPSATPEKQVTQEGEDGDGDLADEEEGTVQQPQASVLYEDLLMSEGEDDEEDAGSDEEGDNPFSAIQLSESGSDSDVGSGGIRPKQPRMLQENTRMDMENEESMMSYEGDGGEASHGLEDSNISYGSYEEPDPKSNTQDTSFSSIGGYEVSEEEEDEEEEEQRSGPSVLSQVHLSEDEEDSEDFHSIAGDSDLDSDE
UniProt Q8TDX7, 34-299 limits assumed: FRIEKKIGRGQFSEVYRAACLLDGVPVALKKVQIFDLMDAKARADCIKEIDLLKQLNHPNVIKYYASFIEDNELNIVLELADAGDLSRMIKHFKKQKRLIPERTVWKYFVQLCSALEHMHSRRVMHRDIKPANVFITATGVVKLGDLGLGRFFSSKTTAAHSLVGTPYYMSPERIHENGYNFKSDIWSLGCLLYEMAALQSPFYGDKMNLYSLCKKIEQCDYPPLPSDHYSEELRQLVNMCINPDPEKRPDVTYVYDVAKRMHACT
UniProt O14976, 14-351 limits assumed: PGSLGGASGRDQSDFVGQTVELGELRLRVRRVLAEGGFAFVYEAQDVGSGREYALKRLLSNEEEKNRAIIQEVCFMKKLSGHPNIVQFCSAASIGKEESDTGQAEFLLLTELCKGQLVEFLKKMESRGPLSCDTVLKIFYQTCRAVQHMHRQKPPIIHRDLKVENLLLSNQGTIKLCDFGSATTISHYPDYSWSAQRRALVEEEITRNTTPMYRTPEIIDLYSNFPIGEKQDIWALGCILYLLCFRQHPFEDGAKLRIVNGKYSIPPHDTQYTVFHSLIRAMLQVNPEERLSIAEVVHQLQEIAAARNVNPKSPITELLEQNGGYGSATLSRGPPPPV

SMILES | PPB mouse (%) [1] [%] | PPB human (%) [2] [%] | PPB human, single replicate [2] | t1/2 human microsomes [3] [h] | ΔTm Erk2 [4] [°C] | ΔTm PIM1 [5] [°C] | ΔTm MST2 [6] [°C] | ΔTm AAK1 [7] [°C] | ΔTm Haspin [8] [°C] | ΔTm TLK1 [9] [°C] | ΔTm MST3 [10] [°C] | ΔTm BMX [11] [°C] | ΔTm BRD4 [12] [°C] | ΔTm CK2a2 [13] [°C] | ΔTm MAP2K7 [14] [°C] | ΔTm MAP2K6 [15] [°C] | ΔTm FGFR2 [16] [°C] | ΔTm JNK3 [17] [°C] | ΔTm MEK4 [18] [°C] | ΔTm TAF1 [19] [°C] | other results
NC(=O)Cn1cc(-c2c(Cl)cnc3[nH]ccc23)nn1 | 19.3 ± 10.7 | 55.3 ± 9.9 | 55.1% and 65.3% and 45.5% | >1 | 0.5 | 0.2 | 0.8 | 4.8 | 3.0 | -1.4 | -1.8 | 0.0 | 0.8 | 1.2 | -0.4 | 3.7 | -0.1 | 1.4 | 4.5 | -15.1 | PPB mouse, single replicate [1]: 20.4% and 8.0% and 29.4%; ΔTm NEK7 [20]: -1.0 °C; ΔTm GAK [21]: 2.4 °C; t1/2 human plasma [22]: 3.357 h; t1/2 mouse microsomes [23]: >1 h
Clc1cnc2[nH]ccc2c1-c1cn(-c2ccccc2)nn1 | 98.0 ± 0.7 | 98.8 | 98.5% and 99.1% and 98.8% | 0.322 | 0.2 | 0.5 | 0.7 | 4.5 | 1.0 | -1.0 | -0.9 | -0.3 | 4.9 | 0.7 | -0.4 | 1.9 | -0.3 | 1.2 | 3.2 | 2.1 | PPB mouse, single replicate [1]: 98.1% and 98.6% and 97.3%; PPB human (%) ([2]; listed as 14 f): 98.8 ± 0.3%; ΔTm NEK7 [20]: -0.3 °C; ΔTm GAK [21]: 1.1 °C; t1/2 human plasma [22]: >4 h; t1/2 mouse microsomes [23]: 0.428 h
Clc1cnc2[nH]ccc2c1-c1ccn[nH]1 | 71.5 ± 19.3 | 74.9 ± 14.2 | 64.9% and 84.9% | >1 | 0.0 | 0.7 | 1.5 | 5.4 | 1.3 | -1.3 | -1.5 | 0.3 | 1.1 | 0.8 | -0.3 | 2.1 | -0.1 | 1.5 | 2.9 | 0.7 | ΔTm NEK7 [20]: -1.1 °C; ΔTm GAK [21]: 1.5 °C; t1/2 human plasma [22]: > 4 h; t1/2 mouse microsomes [23]: >1 h
C[C@@H](O)CCn1cc(-c2c(Cl)cnc3[nH]ccc23)nn1 | 10.1 ± 2.2 | 24.6 ± 6.8 | 17.5% and 25.4% and 31.0% | >1 | 0.6 | 0.5 | 1.2 | 6.0 | 1.2 | -1.3 | -1.9 | 0.3 | 0.5 | 2.0 | -0.8 | 3.3 | 0.0 | 1.4 | 3.9 | 0.7 | PPB mouse, single replicate [1]: 12.6% and 9.2% and 8.5%; ΔTm NEK7 [20]: -0.7 °C; ΔTm GAK [21]: 3.3 °C; t1/2 human plasma [22]: > 4 h; t1/2 mouse microsomes [23]: >1 h
